Laboratory results from PubChem BioAssay (NCI).
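Following 48 hours of exposure in 96-well plates, responses at five concentrations were used to interpolate endpoints linearly. GI50 is the concentration that inhibits growth by half. Definition used: TGI = concentration required for complete inhibition of growth.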

Key:
Test in all cases: growth of human tumour cells (NCI), 48 h; in the data active means GI50 below about 0.43 µM; inactive means the rest
IGROV1 ovarian = test system: IGROV1 ovarian
SK-MEL-2 melanoma = test system: SK-MEL-2 melanoma
MALME-3M melanoma = test system: MALME-3M melanoma
KM12 colon = test system: KM12 colon
HCC-2998 colon = test system: HCC-2998 colon
BT-549 breast = test system: BT-549 breast
RPMI-8226 leukemia = test system: RPMI-8226 leukemia
U251 CNS = test system: U251 CNS
M14 melanoma = test system: M14 melanoma
K-562 leukemia = test system: K-562 leukemia
UO-31 renal = test system: UO-31 renal
MDA-MB-435 = test system: MDA-MB-435
HS 578T breast = test system: HS 578T breast
SF-295 CNS = test system: SF-295 CNS
MOLT-4 leukemia = test system: MOLT-4 leukemia
TK-10 renal = test system: TK-10 renal
HCT-15 colon = test system: HCT-15 colon
SK-MEL-5 melanoma = test system: SK-MEL-5 melanoma
A498 renal = test system: A498 renal
UACC-62 melanoma = test system: UACC-62 melanoma
HOP-92 NSCLC = test system: HOP-92 NSCLC
ACHN renal = test system: ACHN renal
MCF7 breast = test system: MCF7 breast
HCT-116 colon = test system: HCT-116 colon
OVCAR-8 ovarian = test system: OVCAR-8 ovarian
MDA-MB-231 breast = test system: MDA-MB-231 breast
RXF 393 renal = test system: RXF 393 renal
DU-145 prostate = test system: DU-145 prostate
HOP-62 NSCLC = test system: HOP-62 NSCLC
NCI/ADR-RES ovarian = test system: NCI/ADR-RES ovarian
EKVX NSCLC = test system: EKVX NSCLC
UACC-257 melanoma = test system: UACC-257 melanoma
SNB-75 CNS = test system: SNB-75 CNS
NCI-H23 lung = test system: NCI-H23 lung
A549 NSCLC = test system: A549 NSCLC
NCI-H322M lung = test system: NCI-H322M lung
SF-268 CNS = test system: SF-268 CNS
NCI-H522 lung = test system: NCI-H522 lung
COLO 205 colon = test system: COLO 205 colon
SK-MEL-28 melanoma = test system: SK-MEL-28 melanoma
SK-OV-3 ovarian = test system: SK-OV-3 ovarian
NCI-H460 lung = test system: NCI-H460 lung
SNB-19 CNS = test system: SNB-19 CNS
OVCAR-5 ovarian = test system: OVCAR-5 ovarian
OVCAR-3 ovarian = test system: OVCAR-3 ovarian
OVCAR-4 ovarian = test system: OVCAR-4 ovarian
PC-3 prostate = test system: PC-3 prostate
MDA-N = test system: MDA-N
CAKI-1 renal = test system: CAKI-1 renal

CCOP(=O)(Nc1ccc(N(C)C)cc1)OCC
inactive: GI50 (IGROV1 ovarian) > 100 µM | GI50 (SK-MEL-2 melanoma) > 100 µM | GI50 (MALME-3M melanoma) > 100 µM | GI50 (KM12 colon) > 100 µM | GI50 (HCC-2998 colon) > 100 µM | GI50 (BT-549 breast) > 100 µM | GI50 (RPMI-8226 leukemia) > 100 µM | GI50 (U251 CNS) > 100 µM | GI50 (M14 melanoma) > 100 µM | GI50 (K-562 leukemia) > 100 µM | GI50 (UO-31 renal) > 100 µM | GI50 (MDA-MB-435) > 100 µM | GI50 (HS 578T breast) > 100 µM | GI50 (SF-295 CNS) > 100 µM | GI50 (MOLT-4 leukemia) > 100 µM | GI50 (TK-10 renal) > 100 µM | GI50 (HCT-15 colon) > 100 µM | GI50 (SK-MEL-5 melanoma) > 100 µM | GI50 (A498 renal) > 100 µM | GI50 (UACC-62 melanoma) > 100 µM | GI50 (HOP-92 NSCLC) > 100 µM | GI50 (ACHN renal) > 100 µM | GI50 (MCF7 breast) > 100 µM | GI50 (HCT-116 colon) > 100 µM | GI50 (OVCAR-8 ovarian) > 100 µM | GI50 (MDA-MB-231 breast) > 100 µM | GI50 (RXF 393 renal) > 100 µM | GI50 (DU-145 prostate) > 100 µM | GI50 (HOP-62 NSCLC) > 100 µM | GI50 (NCI/ADR-RES ovarian) > 100 µM | GI50 (EKVX NSCLC) > 100 µM | GI50 (UACC-257 melanoma) > 100 µM | GI50 (SNB-75 CNS) > 100 µM | GI50 (NCI-H23 lung) > 100 µM | GI50 (A549 NSCLC) > 100 µM | GI50 (NCI-H322M lung) 57.9 µM | GI50 (SF-268 CNS) > 100 µM | GI50 (NCI-H522 lung) > 100 µM | GI50 (COLO 205 colon) > 100 µM | GI50 (SK-MEL-28 melanoma) > 100 µM | GI50 (SK-OV-3 ovarian) > 100 µM | GI50 (NCI-H460 lung) > 100 µM | GI50 (SNB-19 CNS) > 100 µM | GI50 (OVCAR-5 ovarian) > 100 µM | GI50 (OVCAR-3 ovarian) > 100 µM | GI50 (OVCAR-4 ovarian) > 100 µM | GI50 (PC-3 prostate) > 100 µM | GI50 (MDA-N) > 100 µM | GI50 (CAKI-1 renal) > 100 µM
> 100 µM: TGI (IGROV1 ovarian) | TGI (SK-MEL-2 melanoma) | TGI (MALME-3M melanoma) | TGI (KM12 colon) | TGI (HCC-2998 colon) | TGI (BT-549 breast) | TGI (RPMI-8226 leukemia) | TGI (U251 CNS) | TGI (M14 melanoma) | TGI (K-562 leukemia) | TGI (UO-31 renal) | TGI (MDA-MB-435) | TGI (HS 578T breast) | TGI (SF-295 CNS) | TGI (MOLT-4 leukemia) | TGI (TK-10 renal) | TGI (HCT-15 colon) | TGI (SK-MEL-5 melanoma) | TGI (A498 renal) | TGI (UACC-62 melanoma) | TGI (HOP-92 NSCLC) | TGI (ACHN renal) | TGI (MCF7 breast) | TGI (HCT-116 colon) | TGI (OVCAR-8 ovarian) | TGI (MDA-MB-231 breast) | TGI (RXF 393 renal) | TGI (DU-145 prostate) | TGI (HOP-62 NSCLC) | TGI (NCI/ADR-RES ovarian) | TGI (EKVX NSCLC) | TGI (UACC-257 melanoma) | TGI (SNB-75 CNS) | TGI (NCI-H23 lung) | TGI (A549 NSCLC) | TGI (NCI-H322M lung) | TGI (SF-268 CNS) | TGI (NCI-H522 lung) | TGI (COLO 205 colon) | TGI (SK-MEL-28 melanoma) | TGI (SK-OV-3 ovarian) | TGI (NCI-H460 lung) | TGI (SNB-19 CNS) | TGI (OVCAR-5 ovarian) | TGI (OVCAR-3 ovarian) | TGI (OVCAR-4 ovarian) | TGI (PC-3 prostate) | TGI (MDA-N) | TGI (CAKI-1 renal)
